Laboratory results reported in patent US8723949B2, “Fish activity monitoring system for early warning of water contamination” (dated 2014).

Tested on: fish
Assay: Fish school behaviour in contaminated test tank (Tank B) versus control tank (Tank A), video monitoring
Conditions: about 20 fish, Tank B (contaminated water) vs control Tank A, about 20,000 frames, fish put into water at Frame 0
From the text: In the example embodiment, images are captured at about six frames per second. However, it should be appreciated that a different number of frames per second can also be used. A tracking module is used to associate the same fish throughout the image sequence. Using the spatial information provided by its physical dimension and position mapped on the images, each fish i can be represented by a set of coordinates of the pixels which it occupies.
The activity level of the fish school in the example embodiment can be determined by how fast the fish swim and the complexity of their swimming path. The speed of each fish in the confinement area can be calculated by taking the displacement of its position between consecutive frames. […]
The distribution of a fish school is determined in the example embodiment by the population of fish in different parts of the confinement structure. […]
In the example embodiment, the probability of avoidance behaviour is calculated over a specified number of frames, with each frame having the same weightage, and the probability would increase if the percentage of fish found in the monitored region is less than a certain level, i.e. if most of the fish school is swimming along the sides of the confinement structure, the probability of avoiding the centre region will increase as Q for the centre region is less than T. […]

With Chlorine the overall school speed was “relative hyperactivity after being placed into the tank and start to swim more lethargically after a while”.
